The record followed here is patent publication US9394263B2, “Substituted hetero-azepinones” (priority 2012, dated 2016).

Amino acid sequences for entries named in this document (tags omitted). Chains listed by the source or under a name are the forms on record and can include a tag or linker.
UniProt P98170, other isoform, or with tags, fused parts or gaps, stated change not applied: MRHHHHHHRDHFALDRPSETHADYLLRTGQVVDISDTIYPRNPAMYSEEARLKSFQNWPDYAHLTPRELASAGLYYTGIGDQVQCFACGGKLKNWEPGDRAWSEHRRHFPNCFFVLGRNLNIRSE

Structures can show the parent of a compound that is named as a salt.

This test has as its target BIR2 domain of XIAP (Homo sapiens (Human), UniProt P98170, C202A/C213G). As to the kind of experiment: TR-FRET assay for BIR2: inhibition of binding of XIAP BIR2 domain to Peptide A (SMAC-derived peptide).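 Note: percent inhibition measured across a concentration series of each compound, from which the IC50 was derived.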 The method, then:
TR-FRET Assay for BIR2 and BIR3
Percentage of inhibition at each concentration was determined to generate an IC50 value for each test compound.

As a reminder, the IC50 is the concentration needed to halve the response being measured. Read a low IC50 as inhibition by little substance.

`CN[C@@H](C)C(=O)N[C@H]1CSc2c(NC(=O)CCCC(C)=O)cccc2N(Cc2cccc3ccccc23)C1=O` [Example 24, 5-Oxo-hexanoic acid [(R)-3-((S)-2-methylamino-propionylamino)-5-naphthalen-1-ylmethyl-4-oxo-2,3,4,5-tetrahydro-benzo[b][1,4]thiazepin-9-yl]-amide hydrochloride] showed an IC50 of 373 nM.
